The values that follow come from US6683105B2 (priority 1997, dated 2004).

Sequences of proteins named here, by UniProt entry; tags and fusion partners are left off. Residues count along the entry.
UniProt P22303, 32-617 isoform P22303-2 limits assumed: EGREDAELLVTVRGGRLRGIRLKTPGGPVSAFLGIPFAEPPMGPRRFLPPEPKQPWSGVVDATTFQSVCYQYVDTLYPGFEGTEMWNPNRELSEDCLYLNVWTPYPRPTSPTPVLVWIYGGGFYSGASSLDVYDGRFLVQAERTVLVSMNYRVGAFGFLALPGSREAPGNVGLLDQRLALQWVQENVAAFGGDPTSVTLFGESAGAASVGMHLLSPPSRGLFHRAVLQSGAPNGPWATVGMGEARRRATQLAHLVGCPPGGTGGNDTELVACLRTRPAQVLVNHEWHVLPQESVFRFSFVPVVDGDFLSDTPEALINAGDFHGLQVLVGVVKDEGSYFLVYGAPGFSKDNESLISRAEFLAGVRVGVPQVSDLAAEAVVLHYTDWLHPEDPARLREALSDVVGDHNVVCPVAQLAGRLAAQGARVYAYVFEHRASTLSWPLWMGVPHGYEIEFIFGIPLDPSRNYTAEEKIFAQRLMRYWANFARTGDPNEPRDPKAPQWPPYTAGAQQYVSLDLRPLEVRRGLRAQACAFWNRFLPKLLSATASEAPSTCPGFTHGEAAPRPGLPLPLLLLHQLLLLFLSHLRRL
UniProt P06276, 29-602: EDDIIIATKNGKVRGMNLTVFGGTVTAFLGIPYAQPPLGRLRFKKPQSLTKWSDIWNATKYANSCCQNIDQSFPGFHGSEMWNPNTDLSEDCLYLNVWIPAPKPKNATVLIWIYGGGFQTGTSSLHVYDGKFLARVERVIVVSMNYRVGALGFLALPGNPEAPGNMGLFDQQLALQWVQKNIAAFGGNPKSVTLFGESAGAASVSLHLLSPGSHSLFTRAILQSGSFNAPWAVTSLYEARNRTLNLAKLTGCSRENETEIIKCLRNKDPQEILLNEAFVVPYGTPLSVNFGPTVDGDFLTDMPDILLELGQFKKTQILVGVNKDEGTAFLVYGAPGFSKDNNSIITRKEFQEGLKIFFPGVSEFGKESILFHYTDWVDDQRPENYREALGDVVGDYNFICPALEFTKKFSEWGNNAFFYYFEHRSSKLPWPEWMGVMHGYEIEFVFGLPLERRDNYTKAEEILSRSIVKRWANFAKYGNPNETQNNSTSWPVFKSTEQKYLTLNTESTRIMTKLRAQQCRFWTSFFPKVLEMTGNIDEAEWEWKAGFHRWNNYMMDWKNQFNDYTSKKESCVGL

For one experiment, the target named is human erythrocyte AChE (Homo sapiens, UniProt P22303). The settings on record: read-out: IC50 of AChE. As for the experimental part: (§1) The IC (50) values can be determined for such inhibitors using methods well known in the art. In such assay the pharmacological activity of each compound, as an IC (50), defined as the concentration, in nanomoles, required to inhibit 50% of the enzyme activity of AChE and BChE, is determined separately. For determination of IC (50) values, the enzyme activity of each concentration was expressed as a percent of that determined in the absence of each compound. This then was transformed into a logit format, where logit=In (% activity/[100-% activity]), and was plotted as a function of the log concentration of the compound. IC (50) values (i.e., logit=In (50/[100−5O]=0) were determined only from correlation coefficients (r^2) of less than −0.985 and when more than 50% inhibition was achieved from duplicate samples. The selectivity ratio is then determined by comparing the IC (50) values obtained for each compound with AChE to that for BChE.

For the next experiment, the target named is T1, human plasma BChE (Homo sapiens, UniProt P06276).
T1 construct: human plasma BChE; from tissue; host or cells: human plasma
As to the kind of experiment: BChE inhibition, IC(50) by logit plot. In kind it is biochemical. As for the experimental part:
as §1

One may read the IC50 as the concentration at which inhibition is half-maximal.

In the case of 3′-methyl-carbamoyl eseroline, the values for the IC50 at human erythrocyte AChE and on human plasma BChE were 27 nM and 165 nM, respectively.
